Legend:
Assay type in all cases: cell-based
C5aR1 I912.59A = target: T1, C5aR1 I912.59A (Homo sapiens, UniProt P21730, I91A); experiment: BRET β-arrestin 2 recruitment; conditions: HEK293, BRET, mean±SEM, n=3, Table S3, read-out: EC50, β-arrestin2 recruitment
T1 construct: expressed in transfected cells; host or cells: HEK293
T1 sequence (P21730 1-350 I91A): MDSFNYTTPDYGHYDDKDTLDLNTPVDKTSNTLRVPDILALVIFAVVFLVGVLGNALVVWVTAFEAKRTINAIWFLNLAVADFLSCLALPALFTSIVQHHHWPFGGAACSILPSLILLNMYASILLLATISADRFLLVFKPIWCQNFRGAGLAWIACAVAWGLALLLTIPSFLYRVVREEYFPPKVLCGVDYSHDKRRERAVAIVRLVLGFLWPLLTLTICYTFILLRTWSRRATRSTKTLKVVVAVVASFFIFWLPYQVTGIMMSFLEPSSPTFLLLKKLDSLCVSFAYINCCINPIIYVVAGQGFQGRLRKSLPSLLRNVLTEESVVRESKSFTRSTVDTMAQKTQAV
Procedure: (§1) The C5a-mediated β-arrestin 2 recruitment to C5aR1 and C5aR2, respectively, was measured using BRET-based assay as previously described.[36],[61],[62] Briefly, HEK293 cells were transiently transfected with C5aR1-Nluc and mVenus-β-arrestin 2 or C5aR2-mVenus and Nluc-β-arrestin 2 constructs using PEI transfection reagent (YEASEN, 40816ES02) according to the manufacturer’s instruction. At 24 h post transfection, the cells were gently detached and seeded (100,000/well) onto 96-well white plates in DMEM containing 5% FBS. On the next day, cells were washed once with Phosphate Buffered Saline (PBS) and incubated in HBSS containing 20 mM HEPES, pH 7.4, with coelenterazine h (5 μM, YEASEN, 40906ES02) for 1 h (37 °C, 5% CO2). The baseline BRET light emissions (460–485 nm and 520–545 nm) were monitored by the Synergy H1 microplate reader (BioTek). After the incubation of different diluted concentrations of agonist with or without antagonist for 10 min, the second BRET light emissions were measured and the ligand-induced BRET ratio was calculated by subtracting the acceptor (mVenus, 520–545 nm) over donor (Nluc, 460–485 nm) emission ratio of the vehicle-treated wells from that of the ligand-treated wells. We carried out the nonlinear regression (curve fit) dose-response function in GraphPad Prism 7 to yield the values of Emax and EC50.

C5aR1 Y2586.51A = target: T2, C5aR1 Y2586.51A (Homo sapiens, UniProt P21730, Y258A); experiment: BRET β-arrestin 2 recruitment; conditions: HEK293, BRET, mean±SEM, n=3, read-out: EC50, β-arrestin2 recruitment
T2 construct: expressed in transfected cells; host or cells: HEK293
T2 sequence (P21730 1-350 Y258A): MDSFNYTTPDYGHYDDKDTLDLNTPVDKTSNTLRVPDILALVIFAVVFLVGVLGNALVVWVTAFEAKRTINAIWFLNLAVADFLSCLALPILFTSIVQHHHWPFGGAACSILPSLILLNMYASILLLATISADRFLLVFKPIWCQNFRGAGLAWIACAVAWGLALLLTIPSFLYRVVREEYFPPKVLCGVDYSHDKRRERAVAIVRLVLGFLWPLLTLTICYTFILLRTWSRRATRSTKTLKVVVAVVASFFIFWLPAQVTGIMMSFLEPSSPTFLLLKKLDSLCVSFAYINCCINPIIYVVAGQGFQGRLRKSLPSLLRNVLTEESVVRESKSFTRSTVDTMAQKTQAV
Procedure: as §1

C5aR1 D191ECL2A = target: T3, C5aR1 D191ECL2A (Homo sapiens, UniProt P21730, D191A); experiment: BRET β-arrestin 2 recruitment; conditions: HEK293, BRET, mean±SEM, n=3, read-out: EC50, β-arrestin2 recruitment
T3 construct: expressed in transfected cells; host or cells: HEK293
T3 sequence (P21730 1-350 D191A): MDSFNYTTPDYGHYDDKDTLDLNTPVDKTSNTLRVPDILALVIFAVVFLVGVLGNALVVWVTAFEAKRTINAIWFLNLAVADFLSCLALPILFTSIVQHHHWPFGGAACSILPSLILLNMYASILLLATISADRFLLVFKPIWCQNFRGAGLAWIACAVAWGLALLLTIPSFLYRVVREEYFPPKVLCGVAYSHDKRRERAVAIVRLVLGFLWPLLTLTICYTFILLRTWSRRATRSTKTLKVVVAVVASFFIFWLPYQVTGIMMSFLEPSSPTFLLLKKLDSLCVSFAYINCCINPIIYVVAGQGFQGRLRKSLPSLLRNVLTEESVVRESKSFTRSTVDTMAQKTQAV
Procedure: as §1

C5aR1 S1714.60A = target: T4, C5aR1 S1714.60A (Homo sapiens, UniProt P21730, S171A); experiment: cAMP inhibition assay (GloSensor); conditions: HEK293, 2.5 μM forskolin, mean±SEM, n=3
T4 construct: expressed in transfected cells; host or cells: HEK293
T4 sequence (P21730 1-350 S171A): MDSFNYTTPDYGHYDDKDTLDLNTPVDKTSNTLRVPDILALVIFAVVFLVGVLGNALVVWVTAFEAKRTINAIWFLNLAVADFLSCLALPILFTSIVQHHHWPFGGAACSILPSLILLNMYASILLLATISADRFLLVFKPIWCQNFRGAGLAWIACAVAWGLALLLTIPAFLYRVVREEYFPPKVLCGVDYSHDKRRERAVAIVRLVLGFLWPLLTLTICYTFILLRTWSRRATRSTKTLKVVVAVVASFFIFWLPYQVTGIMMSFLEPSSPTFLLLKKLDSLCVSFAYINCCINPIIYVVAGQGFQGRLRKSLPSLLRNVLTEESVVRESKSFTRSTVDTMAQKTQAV
Procedure: The cDNA sequences of wild-type C5aR1 were cloned into the expression vector pcDNA3.1(+) with a HA signal sequence followed by a Flag tag at the N-terminus. Mutants used in our study were generated by using the Q5 site-Directed Mutagenesis kit (NEB). All the constructs were verified by sanger sequencing. The constructs were transiently expressed in HEK293 cells using PEI transfection reagent (YEASEN, 40816ES02) according to the manufacturer’s instruction. Cells were harvested 48 h post transfection. Cell surface expression levels of receptors were measured by enzyme-linked immunosorbent assay (ELISA).
To measure cAMP inhibition effects on the forskolin-induced cAMP accumulation of C5aR1, the GloSensor cAMP assay (Promega) was performed as described in the previous study.[59] Briefly, Flag-tagged wild-type human C5aR1 was co-expressed with GloSensor plasmid in HEK293 cells in 6-well culture plates. After at least 24 h, transfected cells were harvested and suspended in assay buffer Hank’s Balanced Salt Solution (HBSS) containing 10 mM HEPES, pH 7.4, with an additional 3% v/v dilution of the D-Luciferin-Potassium Salt (YEASEN, 40902ES01). The ligands used in this study were dissolved in H2O to a stock concentration of 10 mM and followed by serial dilution using HBSS solution immediately before ligand stimulation. After incubation at 37 °C for 2 h, cells were stimulated by ligand (diluted in assay buffer containing 2.5 μM forskolin) for 30 min at room temperature. […] Finally, the luminescence signals were counted on the Synergy H1 microplate reader (BioTek). Each measurement was repeated in at least three independent experiments, each in triplicate. Data were processed using the nonlinear regression (curve fit) dose-response function in GraphPad Prism 7 to calculate the values of Emax and EC50.

EC50 (C5aR1 I912.59A): 0.0238 ± 0.00436 µM | EC50 (C5aR1 Y2586.51A): 0.0551 ± 0.00807 µM | EC50 (C5aR1 D191ECL2A): 0.0245 ± 0.00526 µM | EC50 (C5aR1 S1714.60A): 0.00403 ± 0.00133 µM
B1: C5a: 74-amino-acid complement fragment, endogenous agonist; recombinant human C5a, free cysteine replaced by arginine (protein)
chain: TLQKKIEEIAAKYKHSVVKKCCYDGARVNNDETCEQRAARISLGPRCIKAFTECCVVASQLRANISHKDMQLGR
modifications: three intramolecular disulfides; non-glycosylated (E. coli); Trx-His6 tag removed with TEV
